Publication PMC11052071, “Novel JAK Inhibitors to Reduce Graft-Versus-Host Disease after Allogeneic Hematopoietic Cell Transplantation in a Preclinical Mouse Model” (Molecules, 2024)

Chains of the proteins cited; added tags and fusions are not shown. Lines headed by an entry give the natural chain unless they say otherwise; changes in a name come on top.
UniProt O60674: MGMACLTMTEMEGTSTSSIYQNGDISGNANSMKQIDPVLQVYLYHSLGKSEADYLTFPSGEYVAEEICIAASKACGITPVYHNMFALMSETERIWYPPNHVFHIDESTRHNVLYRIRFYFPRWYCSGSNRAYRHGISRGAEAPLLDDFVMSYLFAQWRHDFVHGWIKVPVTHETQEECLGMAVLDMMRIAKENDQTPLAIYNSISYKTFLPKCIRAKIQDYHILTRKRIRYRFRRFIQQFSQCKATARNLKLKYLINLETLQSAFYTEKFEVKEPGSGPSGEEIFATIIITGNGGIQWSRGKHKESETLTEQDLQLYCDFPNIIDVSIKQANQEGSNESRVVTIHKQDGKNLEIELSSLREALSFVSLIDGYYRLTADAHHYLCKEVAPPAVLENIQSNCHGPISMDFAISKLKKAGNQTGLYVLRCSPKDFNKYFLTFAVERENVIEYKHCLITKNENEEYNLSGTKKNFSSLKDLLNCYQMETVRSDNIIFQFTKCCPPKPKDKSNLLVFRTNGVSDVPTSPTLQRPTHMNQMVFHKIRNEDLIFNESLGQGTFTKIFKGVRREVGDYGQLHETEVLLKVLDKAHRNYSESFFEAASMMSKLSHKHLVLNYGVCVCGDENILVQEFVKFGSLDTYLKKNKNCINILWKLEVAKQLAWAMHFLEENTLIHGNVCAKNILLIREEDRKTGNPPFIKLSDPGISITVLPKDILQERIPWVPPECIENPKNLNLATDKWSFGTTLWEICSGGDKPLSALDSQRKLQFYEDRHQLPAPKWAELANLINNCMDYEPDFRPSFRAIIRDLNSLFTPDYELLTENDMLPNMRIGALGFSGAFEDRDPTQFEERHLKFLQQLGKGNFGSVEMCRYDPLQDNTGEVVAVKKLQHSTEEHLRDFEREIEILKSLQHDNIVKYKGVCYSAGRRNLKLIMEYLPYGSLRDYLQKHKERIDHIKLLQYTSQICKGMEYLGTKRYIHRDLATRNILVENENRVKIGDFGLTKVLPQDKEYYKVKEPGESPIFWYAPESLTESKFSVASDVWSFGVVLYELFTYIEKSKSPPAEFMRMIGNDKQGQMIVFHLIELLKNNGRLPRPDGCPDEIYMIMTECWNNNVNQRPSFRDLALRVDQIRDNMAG

How the values were obtained:
[1] = Mouse PK after subcutaneous injection; type: in vivo; settings: 2 mg/kg s.c., CD-1 mice, time points up to 6 h; WU derivatives compared to BARI
Description: Subsequently, we assessed the in vitro metabolic stability and clearance values of WU derivatives in an HLM assay.
(A,B) Mouse PK following subcutaneous administration of WU derivatives (2 mg/kg) to CD-1 mice. […] All error bars are represented as mean ± standard deviation.
Mouse PK and in vitro human liver microsome (HLM) assay studies were conducted by Charles River Laboratories, Inc. (Wilmington, MA, USA). Briefly, male CD-1 mice were used in mouse PK studies. […] At 24 h, no drug levels were detected in plasma for any of the compounds tested. In addition, WU derivatives were evaluated in an in vitro HLM assay to determine the intrinsic human liver microsomal clearance values of compounds in incubations with human liver microsomes.

JAK2 = JAK2 (Homo sapiens, UniProt O60674); assay: Z'-LYTE enzyme activity assay (SelectScreen Kinase Profiling), JAK2

CCS(=O)(=O)N1CC(CC#N)(n2cc(-c3ncnc4[nH]ccc34)cn2)C1 [BARI, baricitinib, reference compound]
plasma drug concentration (mouse PK) [1]: superior PK compared to RUX
IC50 (JAK2; IC50 JAK2, ATP at 1 mM): 12.1 nM
IC50 (JAK2; IC50 JAK2, ATP at app. Km): 0.22 nM
